Measured values taken from patent US6375979B2 (dated 2002).
Read-outs that look alike come from different tables or passages of the source.

Protein sequences, listed by entry. Tags and fused reporters are not part of them.
UniProt P27338, whole entry: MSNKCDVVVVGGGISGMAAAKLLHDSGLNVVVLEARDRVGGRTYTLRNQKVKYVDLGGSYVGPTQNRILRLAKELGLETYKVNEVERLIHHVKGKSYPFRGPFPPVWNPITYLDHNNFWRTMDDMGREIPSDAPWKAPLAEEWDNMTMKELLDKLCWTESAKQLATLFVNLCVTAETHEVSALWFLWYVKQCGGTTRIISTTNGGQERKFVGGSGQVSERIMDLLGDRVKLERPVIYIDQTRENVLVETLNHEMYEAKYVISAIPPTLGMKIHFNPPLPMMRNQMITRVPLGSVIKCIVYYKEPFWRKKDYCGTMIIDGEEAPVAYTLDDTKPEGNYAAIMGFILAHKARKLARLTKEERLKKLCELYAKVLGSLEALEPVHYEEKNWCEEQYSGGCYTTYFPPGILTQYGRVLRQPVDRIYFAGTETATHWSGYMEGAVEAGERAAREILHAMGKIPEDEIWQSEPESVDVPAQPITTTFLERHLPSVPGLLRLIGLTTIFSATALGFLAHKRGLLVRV
UniProt P58028, whole entry: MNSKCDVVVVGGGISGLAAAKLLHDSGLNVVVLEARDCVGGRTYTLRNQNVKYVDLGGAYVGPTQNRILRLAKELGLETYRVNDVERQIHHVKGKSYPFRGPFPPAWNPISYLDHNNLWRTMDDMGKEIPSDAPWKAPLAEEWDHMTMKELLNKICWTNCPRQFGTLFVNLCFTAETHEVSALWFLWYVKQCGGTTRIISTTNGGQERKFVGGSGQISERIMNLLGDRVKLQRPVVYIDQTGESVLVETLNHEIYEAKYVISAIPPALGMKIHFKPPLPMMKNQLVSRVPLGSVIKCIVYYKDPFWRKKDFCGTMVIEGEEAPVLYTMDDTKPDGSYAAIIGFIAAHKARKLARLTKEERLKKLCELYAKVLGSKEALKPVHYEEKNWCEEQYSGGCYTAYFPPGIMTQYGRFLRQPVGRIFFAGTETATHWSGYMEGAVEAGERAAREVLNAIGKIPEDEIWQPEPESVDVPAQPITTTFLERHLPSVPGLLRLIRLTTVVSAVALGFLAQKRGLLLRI
UniProt P23977, whole entry: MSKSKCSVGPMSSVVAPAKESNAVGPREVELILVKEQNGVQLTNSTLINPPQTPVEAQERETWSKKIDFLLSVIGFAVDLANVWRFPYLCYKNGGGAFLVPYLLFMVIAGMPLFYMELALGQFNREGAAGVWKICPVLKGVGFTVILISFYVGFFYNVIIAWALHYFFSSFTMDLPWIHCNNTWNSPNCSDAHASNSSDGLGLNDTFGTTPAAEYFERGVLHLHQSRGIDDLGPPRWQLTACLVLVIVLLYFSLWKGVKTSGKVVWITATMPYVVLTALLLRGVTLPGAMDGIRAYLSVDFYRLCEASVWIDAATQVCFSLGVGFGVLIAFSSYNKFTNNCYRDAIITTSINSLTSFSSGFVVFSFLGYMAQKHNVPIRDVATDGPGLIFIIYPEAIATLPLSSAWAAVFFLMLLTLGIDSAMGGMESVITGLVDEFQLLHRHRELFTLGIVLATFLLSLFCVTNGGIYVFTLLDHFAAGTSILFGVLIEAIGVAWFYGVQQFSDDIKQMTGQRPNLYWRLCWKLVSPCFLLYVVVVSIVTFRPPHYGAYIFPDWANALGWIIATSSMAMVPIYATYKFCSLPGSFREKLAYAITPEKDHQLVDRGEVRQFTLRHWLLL

Tests used:
[1] = test system: γ-interferon production; assay: γ-interferon production by concanavalin A-stimulated spleen cells of treated old rats; type: in vivo, rat; details: most dramatic increases at 1.0 mg/kg body weight
[2] = molecular target: T1, MAO-B (Homo sapiens, UniProt P27338); details: cited from earlier work
[3] = molecular target: T2, MAO-B (Cavia porcellus, UniProt P58028); assay: In vivo brain MAO-B inhibition in guinea pig hippocampus after 5 days of administration; details: for ED50: guinea pig, sc
[4] = molecular target: T1, MAO-B
[5] = molecular target: dopamine re-uptake system (Rattus norvegicus, UniProt P23977); assay: Inhibition of dopamine re-uptake in rat neostriatal synaptosome preparation; details: read-out: IC50, concentration needed to inhibit dopamine uptake by 50%; determined graphically, FIG. 18
[6] = molecular target: T2, MAO-B; assay: MAO-B inhibition in guinea pig hippocampal homogenates in vitro; type: biochemical; details: read-out: MAO-B % Inhibition x ± SEM

Row | Compound | γ-interferon levels in old rats after administration [1] | MAO-B inhibitory effect in vivo as a fraction of selegiline's [2] | times less potent than selegiline, preliminary studies ([3]; brain MAO-B in vivo) | times less potent than selegiline as an inhibitor of MAO-B, more recent studies ([3]; brain MAO-B in vivo, larger group of animals) | times more potent than S(+)DMS as an MAO-B inhibitor [4] | IC50 [5] [µM] | ED50 ([3]; read-out: ID50 for MAO-B in Guinea Pig Hippocampal Cortex, once a day for 5 days, subcutaneous, larger group of animals, FIG. 20) [mg/kg] | ED50 ([3]; read-out: ID50 for brain MAO-B, preliminary studies, once a day for five days, subcutaneous) [mg/kg] | inhibition at 0.3 µM [6] [%]
1 | desmethylselegiline | restoration of γ-interferon levels | about one-fifth | about 10 times | about 25 times | 20-35 times | ~100 | – | – | –
2 | C#CCN(C)[C@H](C)Cc1ccccc1 [Selegiline, R-(−)-N-methyl-N-(prop-2-ynyl)-2-aminophenylpropane, reference compound] | – | – | – | – | – | – | ~0.008 | 0.03 | 98.8 ± 0.5
